From PubChem BioAssay AID1490 (National Center for Advancing Translational Sciences (NCATS), 2009)
This is a selection; strong and weak results do not stand in their true shares. Some of these compounds have results that are not shown, active ones among them. Records with an inconclusive call do not appear. Calls of active or inactive are those of the source. Calls follow the shape of the dose curve; as a rule, active = well fitted inhibition curve with a large enough effect; inconclusive = small, poorly fitted or top-dose-only effect, or another doubt; inactive = no such curve, though single readings can be large or run the other way.

target: 4'-phosphopantetheinyl transferase ffp (Bacillus subtilis) (UniProt Q9F4F7); assay: qHTS Assay for Inhibitors of Bacillus subtilis Sfp phosphopantetheinyl transferase (PPTase); details: Biochemical Sfp PPTase activity;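 also: the enzyme is Sfp with the accession as filed and its product quenches rhodamine fluorescence; 0% = enzyme reaction without inhibitor and -100% = no enzyme wells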

SMILES | largest response in the series, negative = inhibition
C=CCN1CCN(CCOC(=O)C(O)(c2ccccc2)c2ccccc2)CC1 | inactive: 9.48%
CC(C)N1C(=O)CC2(CCN(CCOC(=O)C(O)(c3ccccc3)c3ccccc3)CC2)C1=O | inactive: -3.46%
